In ChEMBL document CHEMBL4831477, “Structure-Enabled Discovery of Novel Macrocyclic Inhibitors Targeting Glutaminase 1 Allosteric Binding Site” (J Med Chem, 2021):
Activity calls are given as the source filed them.

Experiments:
[1] = target: T1, Glutaminase kidney isoform, mitochondrial (Homo sapiens) (UniProt O94925); assay: Noncompetitive inhibition of human GLS1 expressed in Escherichia coli strain BL21 (DE3) assessed as decrease in Vmax using varying concentrations of glutamine as substrate by Michaelis-Menten plot analysis
T1 sequence (whole entry): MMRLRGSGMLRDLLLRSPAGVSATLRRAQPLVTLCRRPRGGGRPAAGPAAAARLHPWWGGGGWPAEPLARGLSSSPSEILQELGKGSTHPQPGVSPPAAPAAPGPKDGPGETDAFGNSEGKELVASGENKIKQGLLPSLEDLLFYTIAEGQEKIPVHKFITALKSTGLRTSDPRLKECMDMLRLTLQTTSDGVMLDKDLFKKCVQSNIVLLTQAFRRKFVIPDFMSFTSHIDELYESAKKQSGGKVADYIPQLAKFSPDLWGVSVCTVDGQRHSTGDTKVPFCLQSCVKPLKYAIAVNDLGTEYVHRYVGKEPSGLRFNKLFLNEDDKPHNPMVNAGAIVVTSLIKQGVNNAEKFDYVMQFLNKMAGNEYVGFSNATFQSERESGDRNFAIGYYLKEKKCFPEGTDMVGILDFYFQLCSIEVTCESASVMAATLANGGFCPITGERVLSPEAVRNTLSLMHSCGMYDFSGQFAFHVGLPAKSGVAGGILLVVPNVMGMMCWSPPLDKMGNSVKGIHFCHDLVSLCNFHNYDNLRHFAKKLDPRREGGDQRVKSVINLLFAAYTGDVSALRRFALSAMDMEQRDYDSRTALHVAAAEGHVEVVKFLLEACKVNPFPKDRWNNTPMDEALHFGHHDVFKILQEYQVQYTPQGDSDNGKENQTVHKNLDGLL

[2] = target: T1, Glutaminase kidney isoform, mitochondrial (Homo sapiens); assay: Inhibition of GLS1 in human HCT-116 cells assessed as reduction in ATP production after 12 hrs; assay type: cell-based
[3] = target: T1, Glutaminase kidney isoform, mitochondrial (Homo sapiens); assay: Inhibition of GLS1 in human HCT-116 cells assessed as decrease in basal oxygen consumption rate at 1 uM after 12 hrs by seahorse XFe analyser based assay; assay type: cell-based
[4] = target: T1, Glutaminase kidney isoform, mitochondrial (Homo sapiens); assay: Inhibition of GLS1 in human HCT-116 cells assessed as decrease in maximal oxygen consumption rate at 1 uM after 12 hrs by seahorse XFe analyser based assay; assay type: cell-based
[5] = target: T1, Glutaminase kidney isoform, mitochondrial (Homo sapiens); assay: Inhibition of GLS1 in human HCT-116 cells assessed as decrease in extracellular acidification rate at 1 uM after 12 hrs by seahorse XFe analyser based assay; assay type: cell-based

Measured: inhibition

O=C1Cc2cccc(c2)OCC/C=C/CCOc2cccc(c2)CC(=O)Nc2nnc(s2)CCCCc2ccc(nn2)N1
active: [1] | [2] | [3] | [4] | [5]
